In PMC11325505, “Nitrogen-Containing Flavonoids—Preparation and Biological Activity” (ACS Omega, 2024):

Assays:
[1] = test system: Methicilin-Resistant S. aureus 331 Strain; test: Mode of antimicrobial action with erythromycin, ermC-positive strain; assay type: cell-based; details: MRSA 331
Text: (§1) Erythromycin is a macrolide antibiotic that inhibits proteosynthesis by binding to the 50S subunit of the ribosome. In Staphylococcus species, resistance to erythromycin is associated with the presence of methyltransferases (encoded by erm genes) that alter the ribosomal target site. Another typical mechanism of resistance to erythromycin is the presence of an ATP-dependent efflux pump encoded by the msr(A) gene or a major facilitator superfamily (MFS) pump encoded by the lmrS gene. Both efflux pumps reduce the concentration of erythromycin in the cell below the therapeutic dose by transporting it across the membrane to the extracellular space. Another erythromycin resistance gene is the mph(C) gene, the product of which is a phosphotransferase that alters the structure of macrolide antibiotics. […]
(§2) Sensitization of multidrug-resistant clinical bacterial strains was performed according to ref[15]. […] The absorbance detected at 600 nm was then used to estimate the number of viable cells after 24 h of incubation at 37 °C and 120 rpm.
(§3) Experiments were performed with the respective number of replicates indicated in each figure/table. MIC was determined as IC70. Both IC70 and IC50 values were calculated using the following nonlinear regression in the software GraphPad Prism: […]

[2] = test system: MRSA 3596; test: Mode of antimicrobial action with erythromycin or gentamicin, ermA- and aadD-positive strain; assay type: cell-based, S. aureus
Text: as §1, §2, §3

[3] = test system: MRSA 1584; test: Mode of antimicrobial action with gentamicin, aac(6')/aph(2')-positive strain; assay type: cell-based, Staphylococcus aureus
Text: Among the mechanisms of resistance to gentamicin previously described in S. aureus, the presence of enzymes that alter the structure of aminoglycosides is crucial. These enzymes can transfer nucleotides, phosphates, or acetyls to various −OH or −NH2 groups of gentamicin, preventing its subsequent interaction with the cellular target, i.e., the 30S ribosomal subunit. The bifunctional aminoglycoside-modifying enzyme with acetylation and phosphotransferase activities encoded by the gene aac(6’)/aph(2’), 4′,4″ adenyltransferase encoded by the aadD gene, and aminoglycoside O-phosphotransferase encoded by the gene aph(3′) are the most important.[37] […] For this reason, further testing continued using strains MRSA 3596 and MRSA 1584, which inactivate gentamicin only by a single mechanism (aadD and aac(6’)-aph(2’’), respectively).
as §2, §3

O=c1c(O)c(-c2ccc(O)c(O)c2)oc2c(Nc3ccc(C(F)(F)F)cc3)c(O)cc(O)c12 [compound 8, 2-(3,4-Dihydroxyphenyl)-8-(4-(trifluoromethyl)anilino)-3,5,7-trihydroxy-4H–1-benzopyran-4-one]
FIC (Fractional Inhibitory Concentration Index) [1]: 2.30 ± 0.03 | FIC (Fractional Inhibitory Concentration Index) ([2]; with erythromycin): 0.22 ± 0.03 | FIC (Fractional Inhibitory Concentration Index) ([2]; with gentamicin): 0.15 ± 0.01 | FIC (Fractional Inhibitory Concentration Index) [3]: 0.97 ± 0.02
